Amino acid sequences for entries named in this document (tags omitted). Residues count along the entry.
UniProt P22303, 32-614 limits assumed: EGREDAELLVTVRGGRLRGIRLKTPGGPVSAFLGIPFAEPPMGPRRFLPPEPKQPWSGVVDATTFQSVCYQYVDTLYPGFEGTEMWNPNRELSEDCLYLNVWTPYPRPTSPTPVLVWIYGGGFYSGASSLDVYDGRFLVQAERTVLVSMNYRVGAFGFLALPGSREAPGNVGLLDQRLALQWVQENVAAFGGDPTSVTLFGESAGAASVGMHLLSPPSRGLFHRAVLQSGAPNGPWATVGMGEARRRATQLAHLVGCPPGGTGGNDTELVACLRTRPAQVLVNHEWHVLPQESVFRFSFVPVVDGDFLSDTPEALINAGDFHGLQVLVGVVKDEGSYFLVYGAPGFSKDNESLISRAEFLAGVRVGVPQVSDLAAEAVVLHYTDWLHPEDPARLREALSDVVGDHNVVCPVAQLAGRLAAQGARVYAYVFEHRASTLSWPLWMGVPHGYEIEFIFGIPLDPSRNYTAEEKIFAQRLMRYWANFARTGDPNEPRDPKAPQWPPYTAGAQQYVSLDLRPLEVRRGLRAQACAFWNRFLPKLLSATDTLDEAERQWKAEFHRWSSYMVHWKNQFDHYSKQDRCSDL

In PMC8563940 (Scientific Reports, 2021):

Columns and labels:
Type in all cases: biochemical
[1] = target: methamidophos-inhibited hAChE (Homo sapiens, UniProt P22303); assay: Oxime reactivation of methamidophos-inhibited hAChE; details: 25 °C; for Kd: read-out: KOX, dissociation constant of the phosphylated enzyme-oxime reversible complex
[2] = target: fenamiphos-inhibited hAChE (Homo sapiens, UniProt P22303); assay: Oxime reactivation of fenamiphos-inhibited hAChE; details: 25 °C; for Kd: read-out: KOX, dissociation constant of the phosphylated enzyme-oxime reversible complex
human AChE = human AChE (Homo sapiens, UniProt P22303); assay: Inhibition of AChE with 1 µM oxime
[3] = methamidophos-inhibited hAChE, ± SEM
[4] = fenamiphos-inhibited hAChE, ± SEM
[5] = methamidophos-hAChE, oxime 0.1 mM

Structure (SMILES)	Kd [1, 3]	Kd [2, 4]	Reactmax (screening) [1, 5]	kobs, observed reactivation rate (screening) [1, 5]	t, time to achieve maximum of reactivation (screening) [1, 5]	k2, maximal first-order reactivation rate constant [1, 3]	kr, overall second-order reactivation rate constant ([1]; methamidophos-inhibited hAChE, ± SEM, kr=k2/KOX)	Reactmax (screening) ([2]; fenamiphos-hAChE, oxime 0.1 mM)	kobs, observed reactivation rate (screening) ([2]; fenamiphos-hAChE, oxime 0.1 mM)	t, time to achieve maximum of reactivation (screening) ([2]; fenamiphos-hAChE, oxime 0.1 mM)	k2, maximal first-order reactivation rate constant [2, 4]	kr, overall second-order reactivation rate constant ([2]; fenamiphos-inhibited hAChE, ± SEM, kr=k2/KOX)	Inhibition of AChE with oxime (human AChE)
ON=Cc1cc[n+](CCn2cc(C[n+]3ccccc3C=NO)nn2)cc1 [Oxime 14A]	200 µM	810 µM											
Cn1cc[n+](CCc2cn(CCC[N+](C)(C)CC=NO)nn2)c1C=NO	130 µM	220 µM	62%	1.3721 min -1	0.16 h	2.9 ± 0.6 min⁻¹	22,400 ± 6,388 min^−1 M^−1	42%	0.0061 min -1	5 h	0.016 ± 0.002 min⁻¹	1.2 ± 0.2 M⁻¹ s⁻¹	13%
